Data on two compounds can be found in patent US8518939B2, “6-pyrimidinyl-pyrimid-4-one derivative” (Mitsubishi Tanabe Pharma Corporation, priority 2007, dated 2013).

Amino acid sequences for entries named in this document (tags omitted).
UniProt P10635, whole entry: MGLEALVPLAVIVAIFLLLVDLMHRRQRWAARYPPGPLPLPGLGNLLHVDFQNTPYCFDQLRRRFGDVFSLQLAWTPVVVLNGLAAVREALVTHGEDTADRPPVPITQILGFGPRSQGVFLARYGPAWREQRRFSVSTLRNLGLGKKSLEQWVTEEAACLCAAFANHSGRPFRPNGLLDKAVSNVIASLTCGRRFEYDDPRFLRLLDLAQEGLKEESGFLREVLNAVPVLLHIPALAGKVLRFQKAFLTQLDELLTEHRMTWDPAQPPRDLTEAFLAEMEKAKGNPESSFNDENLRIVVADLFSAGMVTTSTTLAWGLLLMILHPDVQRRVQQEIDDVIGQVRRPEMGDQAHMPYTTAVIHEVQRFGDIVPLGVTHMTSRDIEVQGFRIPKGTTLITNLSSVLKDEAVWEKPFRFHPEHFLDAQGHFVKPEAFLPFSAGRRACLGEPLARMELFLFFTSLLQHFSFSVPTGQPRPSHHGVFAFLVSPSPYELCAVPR

For the assay, the target named is CYP2D6 (Homo sapiens, UniProt P10635). The assay can be described thus: Inhibitory activity on CYP2D6, human recombinant CYPs.

For orientation: IC50 means the concentration that inhibits the measured activity by half.

On to `Cn1c(N2CCOC(c3ccc(-n4cccn4)cc3)C2)nc(-c2ccncn2)cc1=O` (centres unmarked) [Compound 5, 1-Methyl-2-[2-(4-pyrazol-1-yl-phenyl)-morpholin-4-yl]-1H-[4,4′]bipyrimidinyl-6-one], for which the half-maximal inhibitory concentration (IC50) came out at 1.9 µM. `Cn1c(N2CCOC(c3ccc(-c4ccoc4)cc3)C2)nc(-c2ccncn2)cc1=O` (centres unmarked) [Compound 3, 2-[2-(4-Furan-3-yl-phenyl)-morpholin-4-yl]-1-methyl-1H-[4,4′]bipyrimidinyl-6-one]: the IC50 was determined as 2.3 µM.
